Test results as given in US5260210A, “Blood-brain barrier model” (priority 1990, dated 1993).

Legend:
[1] = test system: Madin-Darby Canine Kidney epithelial cells; test: Flux of ^125 I-labeled albumin across MDCK epithelial cell monolayers; assay type: in vitro ADME; details: resistance greater than 200 ohm-cm^2
Protocol: (§1) The flux of ^125 I-labeled albumin across monolayers of primary cultures of bovine retina endothelial cells and of Madin-Darby Canine Kidney epithelial cells disposed on 0.4μ pore-sized polycarbonate filters was determined as a function of tight junctions as reflected in trans-monolayer electrical resistance of each cell type. The results of such experiments are plotted in FIG. 2. The height of the bars in the histogram is a reflection of leakage of albumin through the junctions between cells--the higher the bar, the greater the leakage of albumin.

[2] = test system: bovine retina endothelial cells; assay type: in vitro ADME
Protocol: as §1

albumin: ^125 I-labeled albumin
albumin flux [1]: virtually abolished
albumin flux [2]: Substantial flux
reduction of albumin flux [2]: 75%
